# AlphaSeq binding of Ab-14 heavy chain variants to a spike HR2 peptide

The target is the same throughout: PDVDLGDISGINAS, from the HR2 region of SARS-CoV-2 spike.

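The parent was found by panning a naive human phage display library on the peptide. This is the validation round: designs drawn from the data on random variants, tested in the same kind of assay. Their group label is 14H_Ctrl (Ctrl: baseline library sampled from a position-specific scoring matrix, with some repeated check sequences). The scFvs were displayed on barcoded MATa yeast, the peptide on MATalpha yeast. Mating (16 h, 30 °C) was followed by selection of diploids and sequencing of their barcodes. Each replicate has its own calibration line, from reference interactions of the BCL2 family. The assay was run in six technical replicates.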

Parent scFv Ab-14: VH joined to VL by the linker GGGGSGGGGSGGGGS. Changes lie in the heavy chain CDRs alone.
VH: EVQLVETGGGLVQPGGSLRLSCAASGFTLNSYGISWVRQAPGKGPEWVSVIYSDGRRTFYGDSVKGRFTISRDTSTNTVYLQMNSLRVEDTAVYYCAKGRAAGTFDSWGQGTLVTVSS
VL: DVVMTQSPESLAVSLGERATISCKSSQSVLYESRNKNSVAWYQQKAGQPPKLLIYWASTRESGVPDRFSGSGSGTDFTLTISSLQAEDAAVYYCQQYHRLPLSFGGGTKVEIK

Changes read parent residue, position, new residue, counted from the first residue of the VH shown. Affinities are written as log10 Kd with Kd in nM; a lower number is a better binder. Where no diploid with the target was found in that replicate, the entry reads "nd": below detection, most likely a poor binder, though not proof of it. The authors averaged sequences with at least three values out of six and counted those with two or fewer as poor binders.

changes,"replicates, log10 nM",signal with controls
N30E T58V G61D R100E A101N,1.03 0.83 0.63 0.17 0.20 0.78,0/18
T58Q S107R,nd nd nd nd nd nd,0/18
R56E A101T S107K,nd nd nd nd nd nd,0/18
S53A T104E,nd nd nd nd nd nd,0/18
T28D A102K D106N,nd nd nd nd nd nd,0/18
S31E S63N,nd 0.96 1.88 nd nd 1.84,0/18
T58A G61I T104C,nd nd nd nd nd nd,0/18
G61H T104E S107H,nd nd nd nd nd nd,0/18
G99R F105L,0.82 nd nd nd nd nd,0/18
S31E I34V G61F,nd nd nd nd nd nd,0/18
G61D R100Q A101S A102I,nd nd nd nd nd nd,1/18 (2.37)
T28V S107L,nd nd nd nd nd nd,0/18
T28H G61I S63D R100Q S107H,0.90 1.53 1.43 nd 1.37 0.87,0/18
F27R L29I S31N G61N G103K F105S D106E S107W,nd nd nd nd nd nd,0/18
F27D G61R G99V A101C T104F,nd nd nd nd nd nd,0/18
T28G N30E R100T G103H,nd nd nd nd nd nd,1/18 (1.47)
F59Y R100Y S107T,0.30 0.24 -0.42 -0.49 -0.59 -0.53,1/18 (1.07)
T58S R100E,1.09 1.46 0.63 0.68 0.70 2.29,0/18
G55K R100D,nd nd nd nd nd nd,0/18
S31E G61D T104R,nd nd 1.51 nd nd nd,0/18
T58K G61I,1.66 nd 2.66 1.62 0.78 1.82,0/18
R56F G103S,nd nd nd nd nd nd,0/18
I34R G61K,nd nd nd nd nd nd,0/18
L29R,nd nd nd nd nd nd,0/18
G61S K65R R100E A102P,1.23 1.01 0.99 1.17 0.95 1.54,0/18
T58Q R100F,nd nd nd nd nd nd,0/18
S31D R100N G103V D106P,nd nd nd nd 0.58 nd,0/18
T28D D106H,nd nd nd nd nd nd,0/18
S31K A101Q,1.12 1.08 nd nd 1.74 1.72,0/18
T28D I34E S63A G99H T104L,nd nd nd nd 1.46 nd,0/18
R100W A102K,1.83 3.02 1.66 nd 2.15 3.43,0/18
G33S F59A S107V,nd nd nd nd nd nd,1/18 (2.98)
N30M S31D R56Q F105Y,nd nd nd nd nd nd,0/18
S31E S35H R100T A101E,-0.72 -0.82 -0.72 -1.04 -0.57 -0.72,0/18
T28A G61E D62N D106N,nd nd nd nd nd nd,0/18
R100S A101G S107I,nd nd nd nd nd nd,0/18
N30E S35H G61Q,0.71 1.44 nd nd nd nd,0/18
R100T A102Q,nd nd nd nd nd nd,0/18
R56Y G61S F105K S107T,nd nd nd nd nd nd,0/18

A sequence measured in both rounds can read differently, since the two assays cover different ranges. As a blank, each scFv also met three strains without target: over all heavy chain designs, 1% of these pairings were detected, typically at 2.08 and seldom below 0.84. For each scFv, signals with the empty controls are counted beside the result, with their mean in brackets.

Source: Li et al. 2023 (doi:10.1038/s41467-023-39022-2), MIT Lincoln Laboratory and A-Alpha Bio; data file from the FLAb repository.